In ChEMBL document CHEMBL1154777, “Univalent and bivalent ligands of butorphan: characteristics of the linking chain determine the affinity and potency of such opioid ligands” (J Med Chem, 2009) one finds Ratio Ki data, which are given here for 1 compound.

Structures are written as SMILES.

This assay is filed under the species Homo sapiens. Put plainly: Selectivity ratio of Ki for human delta opioid receptor to Ki for human kappa opioid receptor.

In the case of `Oc1ccc2c(c1)[C@@]13CCCC[C@H]1[C@@H](C2)N(CC1CCC1)CC3`, the Ratio Ki is 75.
